The series is described as follows: MTDIA plasma pharmacokinetics after oral or i.p. dose in CD-1 mice. Particulars: oral or i.p. dose 15 mg/kg.

On to `CSC[C@H]1CN(Cc2c[nH]c3c(N)ncnc23)C[C@@H]1O` [MTDIA, (3R,4S)-1-[(9-deazaadenin-9-yl)methyl]-3-hydroxy-4-(methylthiomethyl)pyrrolidine], for which the “Peak concentration of MTDIA in plasma” value was around 0.1 µM and the “Time of peak plasma concentration” value is 1 h.

For the origin of these results see patent US10918641B2, “Use of MTAP inhibitors for the treatment of lung disease” (The University of North Carolina at Chapel Hill, priority 2015, dated 2021).
